Experimental data taken from patent US20090060875A1, “HCV Vaccines for Chronic HCV Patients” (INTERCELL AG, priority 2004, published 2009).

Conditions: clinical trials in healthy subjects and chronic HCV patients

Poly-L-Arginine
Safety profile: excellent safety profile
